Assay results from ChEMBL document CHEMBL1148503, “Evaluation of the eutomer of 4-{3-(4-chlorophenyl)-3-hydroxypyrrolidin-1-yl}-1-(4-fluorophenyl)butan-1-one, {(+)-SYA 09}, a pyrrolidine analog of haloperidol” (Bioorg Med Chem Lett, 2006).

Sequences of proteins named here, by UniProt entry; tags and fusion partners are left off. A change or cut given only in a name is not applied to a line headed by its entry.
UniProt P28335: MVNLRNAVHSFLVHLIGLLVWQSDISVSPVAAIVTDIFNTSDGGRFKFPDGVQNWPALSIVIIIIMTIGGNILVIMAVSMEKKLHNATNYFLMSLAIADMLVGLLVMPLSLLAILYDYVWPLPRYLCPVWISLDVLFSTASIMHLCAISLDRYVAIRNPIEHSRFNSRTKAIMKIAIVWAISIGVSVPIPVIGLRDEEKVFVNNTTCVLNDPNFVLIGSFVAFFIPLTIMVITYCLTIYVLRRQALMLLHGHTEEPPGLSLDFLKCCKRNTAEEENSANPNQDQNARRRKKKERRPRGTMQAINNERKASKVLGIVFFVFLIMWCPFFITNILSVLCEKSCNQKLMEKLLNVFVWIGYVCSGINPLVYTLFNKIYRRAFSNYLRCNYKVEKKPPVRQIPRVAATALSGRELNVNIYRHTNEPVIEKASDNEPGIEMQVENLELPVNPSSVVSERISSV

Biological target: 5-hydroxytryptamine receptor 2C (Homo sapiens, UniProt P28335)
Experiment: Binding affinity to human cloned 5HT2C receptor by radioligand binding assay

SMILES: O=C(CCCN1C2CCC1CC(O)(c1ccc(Cl)cc1)C2)c1ccc(F)cc1 (stereo unspecified)
- Ki: 872 nM
